# Data from PubChem BioAssay (NCI).
# Values joined by “and” are separate entries in the source; they are usually repeats but may differ in a detail not shown here. Equal entries are not always repeated.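 Where inhibition never reached the appropriate level, the endpoint shown equals the highest concentration tested. Otherwise, values were interpolated linearly from a five-concentration, 48-hour dose response in 96-well plates. At the GI50, growth is halved. Definition used: TGI = concentration required for complete inhibition of growth.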
# What was measured:
# Experiment in all cases: DTP human tumour cell line panel, 48 h
# [1] = tested on: HCT-15 colon
# [2] = tested on: CCRF-CEM leukemia
# [3] = tested on: HOP-18 NSCLC
# [4] = tested on: RPMI-8226 leukemia
# [5] = tested on: MALME-3M melanoma
# [6] = tested on: NCI-H522 lung
# [7] = tested on: MDA-N
# [8] = tested on: UACC-62 melanoma
# [9] = tested on: MOLT-4 leukemia
# [10] = tested on: SNB-75 CNS
# [11] = tested on: HL-60(TB) leukemia
# [12] = tested on: SR leukemia
# [13] = tested on: K-562 leukemia
# [14] = tested on: DMS 273 small cell lung
# [15] = tested on: HOP-92 NSCLC
# [16] = tested on: SW-620 colon
# [17] = tested on: LOX IMVI melanoma
# [18] = tested on: RXF 393 renal
# [19] = tested on: MDA-MB-435
# [20] = tested on: SK-MEL-5 melanoma
# [21] = tested on: SNB-78 CNS
# [22] = tested on: A498 renal
# [23] = tested on: HCT-116 colon
# [24] = tested on: T-47D breast
# [25] = tested on: KM20L2 colon
# [26] = tested on: BT-549 breast
# [27] = tested on: OVCAR-3 ovarian
# [28] = tested on: LXFL 529 NSCLC
smiles,measurement,setting,value
C[C@@H](O)[C@H]1/C=C/C=C\C(=O)O[C@@H]2C[C@H]3O[C@@H]4[C@@H]5OC5(C)CCC4(COC(=O)[C@H]4O[C@]4(C)[C@@H](O)CO1)[C@]2(C)[C@]31CO1 (stereo partly specified),TGI,[1],0.0207 µM and 0.0481 µM
same,GI50,[2],0.000506 µM
same,TGI,[2],0.0815 µM and 0.0266 µM
same,GI50,[3],0.0392 µM and 0.179 µM
same,TGI,[3],0.278 µM and 1.21 µM
same,TGI,[4],0.0148 µM and 0.018 µM
same,TGI,[5],0.00919 µM and 0.0155 µM
same,TGI,[6],0.000594 µM
same,GI50,[7],0.000336 µM
same,TGI,[7],0.00134 µM
same,TGI,[8],0.0101 µM and 0.07 µM
same,TGI,[9],0.000919 µM
same,TGI,[10],0.0108 µM and 0.0483 µM
same,TGI,[11],0.00102 µM
same,GI50,[12],0.000473 µM
same,GI50,[13],0.000598 µM
same,TGI,[13],0.0496 µM and 0.103 µM
same,GI50,[14],0.00872 µM
same,TGI,[14],0.0273 µM and 0.0154 µM
same,TGI,[15],0.0147 µM and 0.053 µM
same,TGI,[16],0.085 µM and 0.128 µM
same,TGI,[17],0.00116 µM and 0.0115 µM
same,TGI,[18],0.00358 µM and 0.0162 µM
same,GI50,[19],0.000375 µM
same,TGI,[19],0.00201 µM
same,TGI,[20],0.00199 µM and 0.0127 µM
same,GI50,[21],0.0211 µM and 0.0162 µM
same,TGI,[21],0.0647 µM and 0.0456 µM
same,TGI,[22],0.0132 µM and 0.0629 µM
same,TGI,[23],0.0541 µM and 0.0283 µM
same,TGI,[24],0.00133 µM
same,GI50,[25],0.0302 µM and 0.027 µM
same,TGI,[26],0.00316 µM
same,TGI,[27],0.0067 µM and 0.0247 µM
same,GI50,[28],0.00267 µM
same,TGI,[28],0.1 µM
